Assay results published in US7772216B2, “Protein kinase and phosphatase inhibitors and methods for designing them” (The Research Foundation of State University of New York, priority 2001, dated 2010).

Target: pp60^c-src (Homo sapiens, UniProt P12931)
Experiment: Cellular Mimetic Src assay (RR-SRC phosphorylation)

## N#C/C(=C\c1ccc(O)c(O)c1)C(N)=S [Tyrophostin A47, Tyrphostin A47, reference compound]
  % Inhibition at 100 μM (std. dev.): 43 (+/−3) %
